# Screening results as filed in PubChem BioAssay.
# E-sel inducer = induces E-selectin expression in human endothelial cells; P16581; HUVEC E-selectin immunofluorescence imaging; normalized: neutral wells 0, TNF-alpha wells 100; activation, % at 7.58 µM; 260,000 compounds, 0.37% hits; AID 686992;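 active = mean E-selectin-positive cell signal at least 10% of the positive control, reached in at least 60% of replicates, without over 20% cell loss; inconclusive = no rule given, readout overlaps actives, possibly toxicity-flagged; inactive = the rest, including those meeting only one limit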
#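 Assay system: HUVEC primary endothelial cells. Input: 3,000 HUVEC seeded per well. Doses: one compound dose added by pin transfer. Read-out basis: % PE-positive cells. Benchmarks: TNF-alpha high, DMSO low. Detection: immunofluorescence imaging. Buffer or medium: EGM-2, gelatin.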
# DENV2 CPE rescue = inhibitors of DENV2 cytopathic effect. DENV2-infected cells, cytopathic effect rescue, plate reader. CPE inhibition, % at 9.99 µM. 350,000 compounds, 1.7% hits; in the data active = CPE inhibition above about 20%, passing the limit was not always enough; inconclusive = no clear call, values can overlap the other calls; tested in BHK-21 cells;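 also: 0% = median of neutral control wells and 100% = median of positive control wells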
# UUG fidelity = modulators of yeast start codon fidelity, primary screen, whole organism, S. cerevisiae, single point, plate reader; S. cerevisiae UUG-firefly luciferase reporter, luminescence/redox ratio; activity score, % at 18.7 µM; 0.13% of 350,000 active; AID 602363, 2012;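 active = replicate mean at a twofold rise or more, about +100% in these data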;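 also: firefly luciferase made from a UUG start codon reports start codon fidelity; reporter light over untreated wells divided by growth signal over untreated wells; some hits fall short of that in this replicate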
# Cneo AK release = causes C. neoformans cell lysis; adenylate kinase release luminescence, 4 h; normalised: neutral wells 0, clomiphene wells 100; lysis activity, % at 15 µM; 360,000 compounds, 0.2% hits;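 active = mean lysis activity across replicates of at least 80%, whatever share of replicates individually reach that level; inactive = mean lysis activity below 80%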
#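 Assay system: C. neoformans cells. Amount: yeast cell density of 5 × 10^6 cells/mL. Technique: AK luminescence. Buffer or medium: YPD. Times: static 4 h at 37 °C with compound, 1 h detection. Dosing: single-point compound dose. Read-out: lysis from increased AK signal.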
# An asterisk follows results filed as active; ? = inconclusive; . = no result given. In the library only some 1.8% were active in any assay of this set; here they are far more common.
1	C[C@@H]1CCCCO[C@H](CN(C)C)[C@@H](C)CN([C@H](C)CO)C(=O)c2cc(NC(=O)Nc3ccccc3)ccc2O1
2	C[C@H]1CN([C@@H](C)CO)C(=O)c2cc(NC(=O)C3CCCCC3)ccc2O[C@@H]1CN(C)C(=O)Nc1ccc(C(F)(F)F)cc1
3	O=C(C[C@@H]1C=C[C@@H](NC(=O)c2ccncc2)[C@H](CO)O1)Nc1ccccc1
4	O=C(N[C@H]1C=C[C@@H](CC(=O)N2CCN(c3ccccc3)CC2)O[C@H]1CO)c1ccccc1
5	O=C(N[C@@H]1C=C[C@H](CC(=O)N2CCN(c3ccccc3)CC2)O[C@H]1CO)c1ccccc1
screen / no.,1,2,3,4,5
E-sel inducer,0,0,0,0,0
DENV2 CPE rescue,.,-2,35*,71*,8
UUG fidelity,.,-1,.,-6,-1
Cneo AK release,.,-2,.,1,4

6	O=C(c1ccc(F)cc1)N1CCCCN2[C@H](CO)[C@H](c3ccc(-c4ccc(F)cc4)cc3)[C@@H]2C1
7	CCC(=O)Oc1ccc(C(CC)C(CC)c2ccc(OC(=O)CC)cc2)cc1 (centres undefined)
8	CCN(CC(=O)Nc1c(F)cccc1F)C(=O)c1ccc(C(F)(F)F)cc1
9	CCN(CC(=O)Nc1c(F)cccc1F)C(=O)c1ccc(COc2ccccc2)cc1
10	CO[C@H]1CN(C)C(=O)c2ccc(NS(C)(=O)=O)cc2OC[C@@H](C)N(CC2CCOCC2)C[C@H]1C
screen / no.,6,7,8,9,10
E-sel inducer,.,0,0,.,0
DENV2 CPE rescue,.,42*,6,89*,2
UUG fidelity,-3,-4,-10,2,-6
Cneo AK release,-2,0,2,-4,-3

11	CCOC(=O)c1sc(/N=C/N(C)C)c(C(=O)OCC)c1C
12	CCOC(=O)c1sc(/N=C/N(C)C)nc1C
13	C[C@@H](NC(=O)C[C@@H]1C=C[C@H](NC(=O)C2CCOCC2)[C@@H](CO)O1)c1ccccc1
14	Cc1cccc(CC(=O)Nc2sc(C(C)C)cc2C(=O)N2CCOCC2)c1
15	CN(C)C(=O)C[C@@H]1CC[C@@H]2[C@@H](COc3ccc(NC(=O)Nc4cccc(Cl)c4)cc3C(=O)N2C)O1
screen / no.,11,12,13,14,15
E-sel inducer,.,.,0,67*,0
DENV2 CPE rescue,.,40*,-5,-1,1
UUG fidelity,-1,-1,-3,-11,12
Cneo AK release,0,-1,6,-3,-2

16	CO[C@@H]1CC[C@H]2CCOc3ccc(C#N)cc3C(=O)N(C)C[C@@H](C)C(=O)N(C)C[C@@H]1O2
17	C[C@@H]1CN([C@@H](C)CO)C(=O)Cc2cc(NS(=O)(=O)c3ccccc3)ccc2O[C@H]1CN(C)C(=O)Nc1ccc(F)cc1
18	Cc1ccc(S(=O)(=O)Nc2ccc3c(c2)CC(=O)N([C@@H](C)CO)C[C@@H](C)[C@@H](CN(C)C(=O)Nc2ccccc2)O3)cc1
19	C[C@H]1CN([C@@H](C)CO)C(=O)Cc2cc(NS(=O)(=O)c3ccccc3)ccc2O[C@H]1CN(C)C(=O)Nc1ccc(F)cc1
20	O=C(CC1CC1)Nc1ccc2c(c1)[C@@H]1C[C@H](CC(=O)N3CCc4ccccc4C3)O[C@H](CO)[C@@H]1O2
screen / no.,16,17,18,19,20
E-sel inducer,0,0,.,0,0
DENV2 CPE rescue,18,36*,39*,5,-8
UUG fidelity,.,41,11,3,8
Cneo AK release,1,57,1,1,73

21	Cc1ccccc1NC(=O)c1ccc(S(=O)(=O)N(C)C)cc1
22	O=S(=O)(c1ccc(F)cc1)N1CCCN(c2nccc(C(F)(F)F)n2)CC1
23	O=c1ccn([C@@H]2O[C@H](CO)[C@@H](O)[C@H]2O)c(=O)[nH]1
24	O=c1ccn(C2CC(O)C(COC(c3ccccc3)(c3ccccc3)c3ccccc3)O2)c(=O)[nH]1 (centres undefined)
25	O=C(CSc1ncnc2c1cnn2-c1ccc(Cl)cc1)NCc1ccc2c(c1)OCO2
screen / no.,21,22,23,24,25
E-sel inducer,0,30*,0,.,.
DENV2 CPE rescue,51*,4,-1,47*,.
UUG fidelity,-7,-5,-19,.,-19
Cneo AK release,-1,3,0,.,600*

# Arranged by value in DENV2 CPE rescue (largest number first): 3 from the list above
entry | smiles | DENV2 CPE rescue | UUG fidelity
21 | Cc1ccccc1NC(=O)c1ccc(S(=O)(=O)N(C)C)cc1 | 51* | -7
24 | O=c1ccn(C2CC(O)C(COC(c3ccccc3)(c3ccccc3)c3ccccc3)O2)c(=O)[nH]1 (centres undefined) | 47* | .
22 | O=S(=O)(c1ccc(F)cc1)N1CCCN(c2nccc(C(F)(F)F)n2)CC1 | 4 | -5

# The list continues:
26	COc1ccc(S(=O)(=O)Nc2ccc3c(c2)C(=O)N([C@H](C)CO)C[C@H](C)[C@@H](CN(C)Cc2ccc4c(c2)OCO4)OCCCC[C@H](C)O3)cc1
27	COc1ccc(S(=O)(=O)Nc2ccc3c(c2)C(=O)N([C@H](C)CO)C[C@H](C)[C@@H](CN(C)Cc2ccc4c(c2)OCO4)OCCCC[C@@H](C)O3)cc1
28	COc1ccc(CN(C)C[C@@H]2Oc3ccc(NS(=O)(=O)c4ccc(OC)cc4)cc3C(=O)N([C@@H](C)CO)C[C@@H]2C)cc1
29	COc1ccc(S(=O)(=O)Nc2ccc3c(c2)C(=O)N([C@H](C)CO)C[C@H](C)[C@H](CN(C)Cc2ccc(Cl)c(Cl)c2)OCCCC[C@@H](C)O3)cc1
30	COc1ccc(S(=O)(=O)Nc2ccc3c(c2)C(=O)N([C@@H](C)CO)C[C@H](C)[C@@H](CN(C)Cc2ccc(Cl)c(Cl)c2)O3)cc1
screen / no.,26,27,28,29,30
E-sel inducer,0,0,0,0,80*
DENV2 CPE rescue,30*,23*,-6,42*,?
UUG fidelity,24,-5,8,31,10
Cneo AK release,0,1,-2,55,-5

31	COc1ccc(S(=O)(=O)Nc2ccc3c(c2)C(=O)N([C@@H](C)CO)C[C@@H](C)[C@@H](CN(C)Cc2ccc4c(c2)OCO4)OCCCC[C@@H](C)O3)cc1
32	COCC(=O)Nc1ccc2c(c1)OC[C@H](C)N(Cc1ccccc1)C[C@@H](C)[C@@H](OC)CN(C)C2=O
33	COc1ccc(S(=O)(=O)Nc2ccc3c(c2)C(=O)N([C@@H](C)CO)C[C@H](C)[C@@H](CN(C)Cc2ccc4c(c2)OCO4)OCCCC[C@H](C)O3)cc1
34	C[C@@H]1CCCCO[C@@H](CN(C)Cc2ccc3c(c2)OCO3)[C@@H](C)CN([C@H](C)CO)C(=O)c2cc(NS(=O)(=O)c3ccc(F)cc3)ccc2O1
35	COc1ccc(S(=O)(=O)Nc2ccc3c(c2)C(=O)N([C@@H](C)CO)C[C@@H](C)[C@H](CN(C)Cc2ccc4c(c2)OCO4)OCCCC[C@@H](C)O3)cc1
screen / no.,31,32,33,34,35
E-sel inducer,0,0,0,.,2
DENV2 CPE rescue,-4,-13,19,-3,56*
UUG fidelity,14,7,29,28,16
Cneo AK release,6,0,-1,113*,-1

36	C=CCOC(=O)[C@H]1[C@@H]2C(=O)O[C@@H](c3ccccc3)[C@@H](c3ccccc3)N2[C@@H](c2ccc(OCCOC(=O)[C@@H]3C[C@@H]4C(=O)N[C@@H](CC(C)C)C(=O)N4[C@@H]3c3ccc(O)cc3)cc2)[C@]12C(=O)Nc1ccc(I)cc12
37	O=C(C[C@H]1C=C[C@H](NC(=O)Nc2cc(F)ccc2F)[C@@H](CO)O1)NCc1ccc2c(c1)OCO2
38	COCCNC(=O)C[C@@H]1CC[C@H](NC(=O)NC2CCCC2)[C@@H](CO)O1
39	O=C(C[C@H]1CC[C@H](NC(=O)Cc2ccccn2)[C@H](CO)O1)NCCc1ccccc1
40	O=C(CN1CCOCC1)NCC[C@@H]1CC[C@@H](NC(=O)Cc2ccccn2)[C@H](CO)O1
41	O=C(C[C@@H]1CC[C@H](NC(=O)Cc2ccccn2)[C@@H](CO)O1)NCCc1ccccc1
screen / no.,36,37,38,39,40,41
E-sel inducer,.,1,1,0,0,0
DENV2 CPE rescue,-4,1,22*,9,-2,?
UUG fidelity,1,.,-5,-12,-1,10
Cneo AK release,-6,0,-2,4,-3,95*

# 2 compounds from above, showing only UUG fidelity, E-sel inducer and Cneo AK release.
cpd | SMILES | UUG fidelity | E-sel inducer | Cneo AK release
40 | O=C(CN1CCOCC1)NCC[C@@H]1CC[C@@H](NC(=O)Cc2ccccn2)[C@H](CO)O1 | -1 | 0 | -3
39 | O=C(C[C@H]1CC[C@H](NC(=O)Cc2ccccn2)[C@H](CO)O1)NCCc1ccccc1 | -12 | 0 | 4
